For two proteins, Km results are on record in ChEMBL document CHEMBL1128301, “Cephalosporin derivatives of doxorubicin as prodrugs for activation by monoclonal antibody-beta-lactamase conjugates” (J Med Chem, 1995).

Substrate in data set [1]: COc1cccc2c1C(=O)c1c(O)c3c(c(O)c1C2=O)C[C@@](O)(C(=O)CO)C[C@@H]3OC1CC(NC(=O)OCC2=C(C(=O)O)N3C(=O)[C@@H](NC(=O)Cc4ccccc4)[C@H]3SC2)C(O)C(C)O1
Put plainly: The kinetic constant(Km) value as spectrophotometrically by using Enterobacter cloacae P99 beta-lactamase (ECIbL) enzyme as catalyst. In a few lines: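 Initial-velocity kinetics at 23 °C in PBS with 12.5 μg/mL bovine serum albumin. […] Hydrolysis followed by absorbance change at 230 nm or 260 nm, linear over 1 min. Km from direct linear plots, mean of at least three independent experiments.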

Substrate in data set [2]: COc1cccc2c1C(=O)c1c(O)c3c(c(O)c1C2=O)C[C@@](O)(C(=O)CO)C[C@@H]3OC1CC(NC(=O)OCC2=C(C(=O)O)N3C(=O)[C@@H](NC(=O)Cc4ccccc4)[C@H]3SC2)C(O)C(C)O1
Put plainly: The kinetic constant(Km) value as spectrophotometrically by using Bacillus cereus beta-lactamase (BCbL) enzyme as catalyst. In a few lines: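 Spectrophotometric hydrolysis at 23 °C in PBS with 12.5 μg/mL BSA. EClbL was used at 0.1 μg/mL; BCbL and ECbL at 1.0 μg/mL. […] Initial velocities were linear over 1 min. Km and kcat came from direct linear plots, as the mean of ≥3 independent runs.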

B1: Beta-lactamase (Enterobacter cloacae), P05364 (protein)
chain: MMRKSLCCALLLGISCSALATPVSEKQLAEVVANTITPLMKAQSVPGMAVAVIYQGKPHYYTFGKADIAANKPVTPQTLFELGSISKTFTGVLGGDAIARGEISLDDAVTRYWPQLTGKQWQGIRMLDLATYTAGGLPLQVPDEVTDNASLLRFYQNWQPQWKPGTTRLYANASIGLFGALAVKPSGMPYEQAMTTRVLKPLKLDHTWINVPKAEEAHYAWGYRDGKAVRVSPGMLDAQAYGVKTNVQDMANWVMANMAPENVADASLKQGIALAQSRYWRIGSMYQGLGWEMLNWPVEANTVVEGSDSKVALAPLPVAEVNPPAPPVKASWVHKTGSTGGFGSYVAFIPEKQIGIVMLANTSYPNPARVEAAYHILEALQ
The term Km denotes the substrate concentration at which the rate is half of its maximum. Consider B1, for which the Km in data set [1] was determined as 46 µM.

B2: Metallo-beta-lactamase type 2 (Bacillus cereus), P14488 (protein)
chain: MKNTLLKLGVCVSLLGITPFVSTISSVQAERTVEHKVIKNETGTISISQLNKNVWVHTELGYFSGEAVPSNGLVLNTSKGLVLVDSSWDDKLTKELIEMVEKKFKKRVTDVIITHAHADRIGGMKTLKERGIKAHSTALTAELAKKNGYEEPLGDLQSVTNLKFGNMKVETFYPGKGHTEDNIVVWLPQYQILAGGCLVKSASSKDLGNVADAYVNEWSTSIENVLKRYGNINLVVPGHGEVGDRGLLLHTLDLLK
In the case of B2, the Km in data set [2] turned out to be 38 µM.
